Among the data in BindingDB's records for patent US8633183 (Boehringer Ingelheim International, 2014) are IC50 values, retold here.

Chains of the proteins cited; added tags and fusions are not shown.
UniProt P42336, whole entry: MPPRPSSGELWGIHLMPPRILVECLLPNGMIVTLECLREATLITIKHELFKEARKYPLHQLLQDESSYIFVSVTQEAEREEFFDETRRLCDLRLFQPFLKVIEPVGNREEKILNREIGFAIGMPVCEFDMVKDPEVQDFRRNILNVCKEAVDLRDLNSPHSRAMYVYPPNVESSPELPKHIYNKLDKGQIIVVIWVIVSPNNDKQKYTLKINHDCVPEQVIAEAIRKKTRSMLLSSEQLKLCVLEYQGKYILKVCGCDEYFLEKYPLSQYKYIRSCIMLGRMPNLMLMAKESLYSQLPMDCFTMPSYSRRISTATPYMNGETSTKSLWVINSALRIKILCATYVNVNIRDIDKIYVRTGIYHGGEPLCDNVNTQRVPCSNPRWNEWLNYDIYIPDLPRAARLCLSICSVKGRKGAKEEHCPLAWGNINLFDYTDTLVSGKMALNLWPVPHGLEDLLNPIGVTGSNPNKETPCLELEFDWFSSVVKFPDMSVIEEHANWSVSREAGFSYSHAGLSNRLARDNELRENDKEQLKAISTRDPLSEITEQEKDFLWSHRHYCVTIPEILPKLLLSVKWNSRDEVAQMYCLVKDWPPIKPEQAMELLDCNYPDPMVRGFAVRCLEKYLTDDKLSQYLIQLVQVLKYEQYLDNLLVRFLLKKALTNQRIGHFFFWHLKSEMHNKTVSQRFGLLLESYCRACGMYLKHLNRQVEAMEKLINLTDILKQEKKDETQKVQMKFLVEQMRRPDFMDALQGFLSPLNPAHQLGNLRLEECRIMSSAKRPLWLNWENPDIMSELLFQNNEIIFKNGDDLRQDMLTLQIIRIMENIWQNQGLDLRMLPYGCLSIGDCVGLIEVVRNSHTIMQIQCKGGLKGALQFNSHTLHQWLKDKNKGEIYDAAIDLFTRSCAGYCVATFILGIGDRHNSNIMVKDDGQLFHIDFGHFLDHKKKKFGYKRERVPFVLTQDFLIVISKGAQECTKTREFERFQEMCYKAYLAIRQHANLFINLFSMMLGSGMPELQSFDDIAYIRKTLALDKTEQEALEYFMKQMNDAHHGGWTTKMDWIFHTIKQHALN

SMILES strings stand for the structures. pIC50: −log10 of the molar value.

For this experiment, the target named is Phosphatidylinositol 4,5-bisphosphate 3-kinase catalytic subunit alpha isoform (Homo sapiens, UniProt P42336).

By pIC50 is commonly meant the negative decadic logarithm of the IC50, by convention in mol/L. In turn, `CCc1ncnc(-c2ccc(C(=O)N3CCC(N(C)C)C3)c(C)c2)c1C#Cc1ccc(N)nc1` (stereo unspecified) [US8633183, E-126] gave a pIC50 of 6.71.
